# Test results: patent US20250255976A1, “CATIONIC BIOMATERIALS AMELIORATE OBESITY-ASSOCIATED CHRONIC INFLAMMATION AND FOCAL ADIPOSITY” (THE TRUSTEES OF COLUMBIA UNIVERSITY IN THE CITY OF NEW YORK, priority 2022, published 2025)
# Entries after “also recorded” stand apart in the source; their conditions may differ.
# Experiments:
# [1] = tested on: 3T3-L1 adipocytes; experiment: Gene expression in 3T3-L1 adipocytes on Day 6 of differentiation; type: cell-based; conditions: HSA 100 μg/mL, PBS vehicle control
# Procedure: Stable TLR3-, 4-, 8-, and 9-overexpressing HEK-Blue and TLR3 knockout (KO) HEK-Dual Null cells (Invivogen) were propagated in high-glucose Dulbecco's modified Eagle's medium (DMEM) with 10% (v/v) fetal bovine serum (FBS, Corning) and maintained in growth medium supplemented with selective antibiotics following the manufacturer's instructions. RAW264.7 cells (ATCC) were cultured in high-glucose DMEM with 10% (v/v) FBS and then were subcultured by detachment with a cell scraper. C3H10T1/2 cells (ATCC) were cultured in high-glucose DMEM with 10% (v/v) FBS and 1× penicillin/streptomycin (Thermo Fisher). 3T3-L1 cells (ATCC) were cultivated in high-glucose DMEM with 10% (v/v) calf serum and 1× penicillin/streptomycin to maintain the undifferentiated status. […]
# Tissues or cells were lysed into TRIzol™ reagent (Thermo Fisher Scientific), followed by the addition of chloroform for phase separation, and then were purified using a Tri-Isolate RNA Pure Kit (IBI Scientific). […] A Bio-Rad CFX96 Real-Time PCR system was used to perform quantitative real-time PCR (Q-PCR) with GoTaq qPCR Master Mix (Promega). The relative gene expression was calculated by using the ΔΔCt method, and Rpl23 was used as a reference gene.
# [2] = tested on: iWAT of DIO mice; experiment: Local treatment of subcutaneous inguinal fat (iWAT) of DIO mice; type: in vivo, male C57BL/6 mice; conditions: HSA alone, weekly
# Procedure: For HSA-PG3 local treatment of subcutaneous fat, 26-week-old male mice were treated with HSA-PG3 or HSA once weekly by subcutaneous injection into the inguinal fat while on HFD feeding. For each injection, 50 g of HSA-PG3 (10:1 ratio) or 500 g HSA (equivalent to 50 g of HSA-PG3) was diluted in 300 μL of PBS solution and injected into three spots on one side of the inguinal fat. The vehicle control (PBS solution) was administered to the other side of the subcutaneous fat. Mice were sacrificed at five weeks post-injection.
# Tissues or cells were lysed into TRIzol™ reagent (Thermo Fisher Scientific), followed by the addition of chloroform for phase separation, and then were purified using a Tri-Isolate RNA Pure Kit (IBI Scientific). 1 μg of RNA was used to synthesize cDNA with a High-Capacity cDNA Reverse Transcription kit from Applied Biosystems. A Bio-Rad CFX96 Real-Time PCR system was used to perform quantitative real-time PCR (Q-PCR) with GoTaq qPCR Master Mix (Promega). The relative gene expression was calculated by using the ΔΔCt method, and Rpl23 was used as a reference gene.
# After dissection, tissues were immediately fixed in a 10% formalin buffered solution. Two days after fixation, tissues were embedded in paraffin, sectioned, stained with hematoxylin and eosin (H & E), and photographed under a microscope (Olympus IX71). The images were processed using ImageJ software. Frozen eWAT sections were used for the immunohistochemical staining. eWAT sections were incubated with Caveolin-1 (D46G3) (CST, #3267) at a 1:250 dilution overnight, and then anti-rabbit Alexa 488 antibody (Thermo Fisher Scientific, #A27034) was used at a 1:1000 dilution.
# The data are presented as the mean±SEM. The significance between groups was evaluated using ANOVA for multiple comparisons or t-test for comparisons between two groups. A paired t-test was used to assess the significance between the subcutaneous fat on the HSA-PG3 treatment side and that on the nontreated side. The significance level was set to a p value<0.05.
substance,measurement,setting,value
human serum albumin [HSA],effect on adipocyte gene expression,[1],blunted effect
same,iWAT depot size / mass,[2]; 500 g per injection as printed,did not reduce; also recorded: no effect
same,"iWAT Pparg1, Pparg2 and Fabp4 expression",[2],downregulate
same,iWAT lipid synthetic genes,[2],nor repress most lipid synthetic genes
